# Test results: PMC10894853, “Distribution and elimination kinetics of midazolam and metabolites after post-resuscitation care: a prospective observational study” (Scientific Reports, 2024)
# Experiment: Non-compartmental pharmacokinetics of midazolam and metabolites in plasma after discontinuation of MDZ infusion (LC-MS/MS)
# Assay type: in vivo, human
# Protocol: The PK parameters were obtained using a non-compartmental method with Phoenix WinNonlin (version 8.3.5; Certara, USA). […] The AUC from time 0 to infinity (AUCinf) was calculated as AUClast + Clast/λz, where Clast is the last measurable concentration and λz is the elimination rate constant. The mean residence time was calculated as […]. The estimated t1/2 was calculated from λz based on a previously reported equation[12].
# All samples were immediately frozen and stored at –70 ℃ after centrifugation with 3,000 rpm for 10 min and then sent to the Nutrition Food Microbiology Laboratory at Chungnam National University (http://nfml.kr/) to determine the concentration of midazolam and its metabolites using liquid chromatography with tandem mass spectrometry analysis.
# The sample preparation method was performed as previously described with some modifications. A 20 µL of sample was mixed with 180 µL of 80% methanol, followed by protein precipitation at 4 °C for 30 min. Subsequently, the supernatant was harvested and added to 1800 µL of distilled water. The pre-treated samples were loaded onto an Oasis HLB Vac RC cartridge (30 mg, 20 cc, Waters) that had been preconditioned with 6 mL of methanol and 6 mL of distilled water. The cartridge was washed with 6 mL distilled water and sequentially eluted with methanol (4 mL). The eluted samples were dried using an evaporator and resuspended with 0.2 mL of methanol for analysis.
substance,measurement,setting,value
midazolam glucuronide [MDZ-Glu],t1/2 (elimination half-life),"after discontinuation of MDZ infusion, mean ± SD",11.4 ± 17.0 h
same,AUClast,"plasma, 0 to 24 h after discontinuation of MDZ infusion, relative concentration, arithmetic mean ± SD",2175.6 ± 2212.3 h*ppm
same,AUCinf,"plasma, time 0 to infinity after discontinuation of MDZ infusion, relative concentration, mean ± SD",3158.5 ± 2887.2 h*ppm
